From US7851630B2, “Hydronopol substituted benzimidazolone and quinazolinone derivatives as agonists on human ORL1 receptors” (dated 2010)

Key:
[1] = biological target: human ORL1 receptor (Homo sapiens, UniProt P41146); test: Affinity for human ORL1 receptors, [3H]-nociceptin receptor binding assay; conditions: membranes of CHO cells expressing human ORL1 receptor
[2] = biological target: human μ-opiate receptor (Homo sapiens, UniProt P35372); test: Affinity for μ-opiate receptors, [3H]-naloxone receptor binding assay; conditions: membranes of CHO cells expressing human μ-opiate receptor

Structure (SMILES): CC1(C)[C@H]2CC[C@@H](CCN3CCC(N4C(=O)NCc5ccccc54)CC3)[C@@H]1C2
- affinity ORL1 pKi [1]: 7.8
- affinity μ-opiate pKi [2]: 7.3
